Data taken from patent US11046753B2, “Antibody composition and buffer system therefor” (INNOVA BIOSCIENCES LTD, priority 2013, dated 2021).

Test: Degree of ionisation of the acid group at pH 5 (Henderson-Hasselbach)
Assay type: physicochemical

Substance: Glycine
- acid groups ionised (COO−): 99.78% and ~99.8%

Several values for one entry are separate records, joined by “and”; a condition that tells them apart may be missing. Equal entries are not always repeated.
